ARNT TACC3 PPI – disrupts binding between human ARNT and TACC3; Q9Y6A5; hit rate 0.66% among 390,000; AlphaScreen His-ARNT PAS-B/GST-TACC3 binding, luminescence; TACC3 fragment carries E629A point mutation; inhibition, % at 9.99 µM;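 active means mean inhibition of replicates at least 50% and at least half of replicates each reaching 50%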;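 further: 0% = complete ARNT plus TACC3 wells and 100% = ARNT alone without TACC3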
FGF22 binding – FGF22 (human) thermal shift binding; Q9HCT0; recombinant FGF22 thermal shift, SYPRO orange fluorescence; percent of sucrose octasulfate shift, DMSO zero; activity (Tm shift, normalised), % at 9.99 µM; hit rate 1.5% among 340,000; AID 651658;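 active means mean Tm shift, scaled 0 neutral to 100 positive control, at about 1.3% or above, every replicate too, limit read from the data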
PDI turbidity – blocks human protein disulfide isomerase activity | P07237 | PDI insulin aggregation turbidity, A650, 90 min | inhibition, % at 10 µM | hit rate 0.052% among 350,000 | AID 588391;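 active means mean inhibition across replicates of 30% or more, whatever share of single replicates reach that level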
ERp5 inh – blocks human ERp5 reductase activity on insulin; ERp5 insulin aggregation, absorbance 650 nm, 90 min; hit rate 0.05% among 350,000; inhibition, % at 9.99 µM; AID 651711; Q15084;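 active means mean replicate inhibition above about 25%, with every replicate also reaching it, limit read from the data, passing the limit was not always enough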
PglD DTNB – inhibitors of Campylobacter jejuni PglD acetyltransferase; purified PglD enzyme, DTNB colorimetric CoA detection; inhibition, % at 12.5 µM; hit rate 0.098% among 360,000; in the data active means inhibition above about 16%, passing the limit was not always enough
UUG fidelity – alters start codon recognition fidelity in yeast; S. cerevisiae UUG-firefly luciferase reporter, luminescence/redox ratio; activity score, % at 18.7 µM; actives 0.13% (n = 350,000); AID 602363;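 active = replicate mean at a twofold rise or more, about +100% in these data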;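 also: firefly luciferase made from a UUG start codon reports start codon fidelity; reporter light over untreated wells divided by growth signal over untreated wells; some hits fall short of that in this replicate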
* marks the source's active call; other numbers are inactive results; nt = not tested or not shown. In the library only some 1.9% were active in any assay of this set; here they are far more common.

item | structure | ARNT TACC3 PPI | FGF22 binding | PDI turbidity
1 | C[C@@H]1CN([C@H](C)CO)C(=O)c2cc(C#Cc3ccccc3)cnc2O[C@H]1CN(C)C(=O)CCN1CCCCC1 | 8.2 | -0.6 | nt
2 | CCOC(=O)NC(C)N1C(=O)C2C3C=CC(C3)C2C1=O (stereo not given) | -1.4 | 43.6* | -0.1
3 | CO[C@@H]1CN(C)C(=O)c2ccc(NC(=O)c3ccc(Oc4ccccc4)cc3)cc2OC[C@@H](C)NC[C@@H]1C | nt | -0.1 | nt
4 | CCOC(=O)C1CCCN(C2=NC(=O)/C(=C/c3ccc(N(C)C)cc3)S2)C1 (stereo not given) | 3.3 | 1.9* | -4.1
5 | CCOC(=O)C1CCCN(C2=NC(=O)/C(=C/c3ccc(OC)cc3)S2)C1 (stereo not given) | -3.6 | 0.0 | 2.4
6 | O=C(Nc1nc2ccccc2n1CCN1CCOCC1)c1ccc(COc2ccccc2Br)o1 | nt | 43.1* | 15.8
7 | O=C(c1ccccc1F)N1C[C@@H]2[C@H](c3ccccc31)[C@@H](CO)N2C(=O)Nc1ccccc1 | 7.0 | 0.0 | nt
8 | CCCNC(=O)C[C@@H]1C[C@H]2c3cc(NS(C)(=O)=O)ccc3O[C@H]2[C@@H](CO)O1 | -10.2 | 0.1 | nt

item | ERp5 inh | PglD DTNB | UUG fidelity
1 | 18.7 | 3.6 | 7.4
2 | 3.3 | nt | nt
3 | -2.2 | nt | nt
4 | 5.8 | 0.9 | 9.7
5 | -0.8 | -5.3 | -16.9
6 | 2.9 | nt | nt
7 | 4.1 | 0.4 | 1.2
8 | 55.9* | 2.7 | -7.4

One compound at a time, as listed above. Values in the order: ARNT TACC3 PPI, FGF22 binding, PDI turbidity, ERp5 inh, PglD DTNB, UUG fidelity
`C[C@@H]1CN([C@H](C)CO)C(=O)c2cc(C#Cc3ccccc3)cnc2O[C@H]1CN(C)C(=O)CCN1CCCCC1` in the list: 8.2, -0.6, nt, 18.7, 3.6, 7.4
`CCOC(=O)NC(C)N1C(=O)C2C3C=CC(C3)C2C1=O` (stereo not given) in the list: -1.4, 43.6*, -0.1, 3.3, nt, nt

Further records
item | structure | ARNT TACC3 PPI | FGF22 binding | PDI turbidity
9 | CCCNC(=O)C[C@H]1C[C@H]2c3cc(NS(C)(=O)=O)ccc3O[C@H]2[C@@H](CO)O1 | -9.7 | 0.0 | nt
10 | CCCNC(=O)C[C@@H]1C[C@@H]2c3cc(NS(C)(=O)=O)ccc3O[C@@H]2[C@@H](CO)O1 | -7.5 | -0.2 | nt
11 | CCC(=O)NNC(=O)CCC(=O)Nc1ccc(C)cc1C | -6.0 | 43.4* | -7.8
12 | COc1ccc(Oc2nc(-c3ccccc3)ncc2C(=O)O)cc1 | 10.6 | 43.0* | 2.5
13 | COc1ccc(Sc2nc(-c3ccccc3)ncc2C(=O)O)cc1 | -10.5 | 42.7 | 1.6
14 | O=C(N(c1ccccc1)c1ccccc1)N(c1ccccc1)c1ccccc1 | nt | -0.2 | 0.6
15 | CC(=O)N(C1=C(N)C(=O)c2ccccc2C1=O)c1ccccc1 | 12.1* | -0.2 | 4.6
16 | COc1ccc2c3c(n(C)c2c1)[C@H](CO)N(CC1CCOCC1)CC31CCN(Cc2nccs2)CC1 | nt | 0.0 | nt

item | ERp5 inh | PglD DTNB | UUG fidelity
9 | 26.7* | -0.2 | -12.3
10 | nt | 1.5 | 0.9
11 | 0.4 | nt | nt
12 | 0.5 | nt | nt
13 | 2.5 | nt | nt
14 | 0.2 | 0.6 | -26.2
15 | -1.5 | 8.0 | 20.3
16 | 5.9 | nt | nt

item | structure | ARNT TACC3 PPI | FGF22 binding | PDI turbidity
17 | CNC[C@@H]1OCCCC[C@@H](C)Oc2ccc(NC(=O)Cc3ccccc3)cc2C(=O)N([C@H](C)CO)C[C@H]1C | -3.1 | 0.0 | nt
18 | Cc1ccc(S(=O)(=O)NC(=O)Nc2ccccc2)cc1 | -4.7 | 0.0 | 1.8
19 | Cc1ccc(S(=O)(=O)N(C)C(=O)NC(=O)NS(=O)(=O)c2ccccc2)cc1 | nt | 43.8* | 10.2
20 | COc1ccc(-c2nn(-c3ccccc3)cc2N)cc1 | 0.4 | 43.5* | 3.7
21 | COc1ccc(-c2nn(-c3ccccc3)cc2CO)cc1 | 8.2 | nt | -4.3
22 | Cc1ccc(SCCC(=O)NNC(=O)c2ccccc2F)cc1 | 1.6 | 43.4* | -1.6
23 | NNC(=O)CN1C(c2ccc(Cl)cc2)=Nc2ccc(Br)cc2C1c1ccccc1 (stereo not given) | -10.9 | nt | 2.2
24 | CC1=Nc2ccc(Br)cc2C(c2ccccc2)N1CC(=O)NN (stereo not given) | 1.4 | 43.2* | -3.6

item | ERp5 inh | PglD DTNB | UUG fidelity
17 | -0.8 | 3.8 | 3.4
18 | -1.9 | nt | nt
19 | 2.1 | -2.8 | -23.0
20 | -2.2 | nt | nt
21 | nt | 2.9 | -5.7
22 | 7.4 | 3.7 | -13.1
23 | nt | nt | nt
24 | 0.5 | nt | nt

Some of these compounds in order of the PglD DTNB value, highest first:
entry	molecule	PglD DTNB
17	CNC[C@@H]1OCCCC[C@@H](C)Oc2ccc(NC(=O)Cc3ccccc3)cc2C(=O)N([C@H](C)CO)C[C@H]1C	3.8
22	Cc1ccc(SCCC(=O)NNC(=O)c2ccccc2F)cc1	3.7
21	COc1ccc(-c2nn(-c3ccccc3)cc2CO)cc1	2.9
19	Cc1ccc(S(=O)(=O)N(C)C(=O)NC(=O)NS(=O)(=O)c2ccccc2)cc1	-2.8

Additional compounds.
item | structure | ARNT TACC3 PPI | FGF22 binding | PDI turbidity
25 | NNC(=O)CN1C(c2ccccc2)=Nc2ccc(Br)cc2C1c1ccccc1 (stereo not given) | -4.4 | 43.1* | 0.1
26 | C[C@H](CO)N1C[C@H](C)[C@@H](CN(C)C(=O)Nc2cccc3ccccc23)Oc2ccc(NC(=O)NC3CCCCC3)cc2CC1=O | -0.4 | 0.0 | nt
27 | COc1ccc(-n2c(=O)c3ccccc3n(CC(=O)NCC3CCCO3)c2=O)cc1 (stereo not given) | -10.7 | 44.2* | 6.1
28 | COc1ccc(S(=O)(=O)N(C)C[C@H]2OCCCC[C@H](C)Oc3ccc(NC(=O)Nc4cccc5ccccc45)cc3C(=O)N([C@H](C)CO)C[C@H]2C)cc1 | nt | 1.7* | nt
29 | C[C@@H]1CCCCO[C@H](CN(C)S(=O)(=O)c2cn(C)cn2)[C@@H](C)CN([C@H](C)CO)C(=O)c2cc(NC(=O)Nc3cccc4ccccc34)ccc2O1 | -9.7 | 1.7* | nt
30 | COc1ccc(S(=O)(=O)N(C)C[C@H]2OCCCC[C@@H](C)Oc3ccc(NC(=O)Nc4cccc5ccccc45)cc3C(=O)N([C@@H](C)CO)C[C@@H]2C)cc1 | nt | 1.3* | nt
31 | COc1ccc(S(=O)(=O)N(C)C[C@H]2OCCCC[C@@H](C)Oc3ccc(NC(=O)Nc4cccc5ccccc45)cc3C(=O)N([C@@H](C)CO)C[C@H]2C)cc1 | nt | 1.5* | nt
32 | C[C@@H]1CCCCO[C@H](CN(C)C(=O)NC2CCCCC2)[C@H](C)CN([C@@H](C)CO)C(=O)c2cc(NC(=O)NC3CCCCC3)ccc2O1 | -6.9 | -0.3 | nt

item | ERp5 inh | PglD DTNB | UUG fidelity
25 | -2.4 | nt | nt
26 | -1.3 | -7.6 | -1.6
27 | 3.5 | 1.9 | -9.0
28 | 1.7 | 3.8 | -13.3
29 | -4.6 | 1.9 | -7.1
30 | -0.3 | 3.2 | -25.6
31 | -0.9 | 2.1 | -15.3
32 | 3.1 | -1.4 | -1.4

item | structure | ARNT TACC3 PPI | FGF22 binding | PDI turbidity
33 | Cc1cccc(C)c1NC(=O)COC(=O)Cc1ccsc1 | -1.9 | 43.3* | -5.7
34 | C[C@@H]1CN([C@H](C)CO)C(=O)c2cc(NS(=O)(=O)c3cccs3)ccc2O[C@@H]1CN(C)S(=O)(=O)c1cn(C)cn1 | 0.4 | -0.2 | nt
35 | O=C(C[C@@H]1C[C@H]2c3cc(NC(=O)C4CCOCC4)ccc3O[C@H]2[C@H](CO)O1)NCc1ccc(Cl)cc1 | -11.8 | -0.2 | nt
36 | COc1ccc(NC(=S)N(C)CC2COc3ccccc3O2)cc1 (stereo not given) | 1.1 | -0.2 | 2.9
37 | CCN(CC1COc2ccccc2O1)C(=S)Nc1ccc(F)cc1 (stereo not given) | nt | 43.8* | -4.0
38 | O=C(NCC[C@H]1CC[C@H](NC(=O)C2CCCC2)[C@@H](CO)O1)Nc1ccc(Cl)cc1 | -3.4 | 0.3 | nt
39 | Nc1ccc(C(=O)Nc2ccc3nc(-c4ccncc4)[nH]c3c2)cc1 | 20.0 | 44.4* | -4.6
40 | CC(=O)Nc1ccc2nc(-c3ccncc3)[nH]c2c1 | 0.4 | nt | 5.3

item | ERp5 inh | PglD DTNB | UUG fidelity
33 | -2.0 | nt | nt
34 | 1.1 | 1.3 | 13.8
35 | 3.9 | -0.5 | 21.4
36 | -4.4 | 3.1 | -16.3
37 | -0.6 | -7.7 | -16.9
38 | 0.5 | 2.3 | 2.4
39 | 0.9 | nt | nt
40 | nt | -3.9 | -21.1

item | structure | ARNT TACC3 PPI | FGF22 binding | PDI turbidity
41 | O=c1cc(CSc2ccc(Cl)cc2)nc(-c2ccncc2)[nH]1 | -4.6 | 43.3* | 2.4
42 | O=c1cc(CSc2ccccc2)nc(-c2ccncc2)[nH]1 | 4.5 | 0.2 | 1.8
43 | C[C@H](CO)N1C[C@H](C)[C@H](CN(C)Cc2ccc(C(F)(F)F)cc2)Oc2ccc(NC(=O)CCN3CCOCC3)cc2C1=O | 5.4 | 0.5 | nt
44 | CC(C)=CC(=O)Nc1ccc(OCc2ccccc2)cc1 | 8.9 | 73.6* | -1.0

item | ERp5 inh | PglD DTNB | UUG fidelity
41 | 0.1 | nt | nt
42 | 2.7 | nt | nt
43 | 3.0 | 8.6 | nt
44 | 3.7 | nt | nt

High-throughput results as filed in PubChem.
